What all share (format): biochemical
Assay [1] deals with T1, recombinant human PAI-1 (Homo sapiens, UniProt P05121).
T1 construct: purchased Molecular Innovations, Inc
Put plainly: Test Example 1: human PAI-1 inhibitory activity (tPA fluorogenic substrate, pH 7.5 Tris buffer). As to the method:
50 mM Tris, 150 mM NaCl, 10 μg/ml BSA, 0.01% Tween80 (SIGMA-ALDRICH Corporation)

Protein sequences, listed by entry. Tags and fused reporters are not part of them. Residues count along the entry.
UniProt P05121, 24-402: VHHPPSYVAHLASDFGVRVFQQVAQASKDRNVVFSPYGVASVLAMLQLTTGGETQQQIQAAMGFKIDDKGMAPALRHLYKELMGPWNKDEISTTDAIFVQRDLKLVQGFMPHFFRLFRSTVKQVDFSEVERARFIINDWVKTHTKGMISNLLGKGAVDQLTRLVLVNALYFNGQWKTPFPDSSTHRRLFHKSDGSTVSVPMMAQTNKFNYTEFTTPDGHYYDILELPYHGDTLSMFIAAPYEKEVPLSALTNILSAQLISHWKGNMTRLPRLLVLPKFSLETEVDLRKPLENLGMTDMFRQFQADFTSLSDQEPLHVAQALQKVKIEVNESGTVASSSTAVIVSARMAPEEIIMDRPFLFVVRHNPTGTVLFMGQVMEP

Assay [2] concerns the target T2, recombinant rat PAI-1 (Rattus norvegicus, UniProt P20961).
T2 construct: purchased Molecular Innovations, Inc
T2 sequence (P20961 24-402): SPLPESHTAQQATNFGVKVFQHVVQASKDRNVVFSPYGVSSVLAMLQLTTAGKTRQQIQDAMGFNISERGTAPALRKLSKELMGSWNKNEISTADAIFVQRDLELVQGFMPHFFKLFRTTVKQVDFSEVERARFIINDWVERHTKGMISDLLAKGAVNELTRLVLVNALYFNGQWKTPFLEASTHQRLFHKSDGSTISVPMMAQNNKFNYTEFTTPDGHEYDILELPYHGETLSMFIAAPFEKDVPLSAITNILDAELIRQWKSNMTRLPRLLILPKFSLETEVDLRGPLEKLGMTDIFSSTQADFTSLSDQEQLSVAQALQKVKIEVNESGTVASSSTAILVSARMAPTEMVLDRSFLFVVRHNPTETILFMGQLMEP
Put plainly: Test Example 3: rat PAI-1 inhibitory activity (as Test Example 2 with rat PAI-1). The settings on record: calculated from the inhibition rates.

For assay [3], the target named is T1, recombinant human PAI-1. Put plainly: Test Example 2: human PAI-1 inhibitory activity (tPA fluorogenic substrate, pH 7.4 HEPES buffer). The settings on record: calculated from the inhibition rates. As to the method: 0.1 M HEPES, 0.1 M NaCl. 1 mM EDTA. 0.1% Polyethylene glycol 8,000 (Hampton Research Corporation),
2 mM Dimethyldecylphoshine oxide [Apo-10] (Fluka Corporation)

The IC50 is the midpoint of a concentration-inhibition curve.

Turning to `O=C(O)C=Cc1cc(-c2ccccc2[N+](=O)[O-])ccc1OCc1ccccc1` [Compound 7], the figures for the “Inhibition Rate of PAI-1 Activity (%)” value in assay [1] (Compound Concentration 5 μM) and in assay [1] (Compound Concentration 10 μM) were 14% and 21%, respectively.

Take `O=C(O)C=Cc1cc(-c2ccc(OC(F)(F)F)cc2)ccc1OCc1ccc(Cl)cc1` [Compound 18]: the figures for the “Inhibition Rate of PAI-1 Activity (%)” value in assay [1] (Compound Concentration 5 μM), in assay [1] (Compound Concentration 10 μM) and in assay [1] (Compound Concentration 25 μM) were 36%, 65% and 92%, respectively.

Regarding `O=C(O)CCc1cc(-c2ccc(OC(F)(F)F)cc2)ccc1OCc1ccc(Cl)cc1` [Compound 19], the “Inhibition Rate of PAI-1 Activity (%)” value in assay [1] (Compound Concentration 10 μM) was determined as 13%; in assay [1] (Compound Concentration 25 μM), 77%.

With `CCCCc1ccc(COc2ccc(-c3ccc(OC(F)(F)F)cc3)cc2CCC(=O)O)cc1` [Compound 30], the results for the half-maximal inhibitory concentration (IC50) in assay [2] and in assay [3] were 3.31 µM and 1.41 µM, respectively.

As for `Cc1ccc(-c2ccc(OCc3ccc(C(C)(C)C)cc3)c(/C=C/C(=O)O)c2)cc1` [Compound 41], the entries for the “Inhibition Rate of PAI-1 Activity (%)” value in assay [1] (Compound Concentration 5 μM), in assay [1] (Compound Concentration 10 μM) and in assay [1] (Compound Concentration 25 μM) were 25%, 56% and 91%, respectively.

Turning to `Cc1ccc(-c2ccc(OCc3ccc(C(C)(C)C)cc3)c(CCC(=O)O)c2)cc1` [Compound 42], the “Inhibition Rate of PAI-1 Activity (%)” value is reported as 27% in assay [1] (Compound Concentration 5 μM), 59% in assay [1] (Compound Concentration 10 μM) and 97% in assay [1] (Compound Concentration 25 μM).

Regarding `O=C(O)/C=C/c1cc(-c2ccccc2)ccc1OCc1ccccc1` [Compound 45], the “Inhibition Rate of PAI-1 Activity (%)” value in assay [1] (Compound Concentration 10 μM) was 15%; in assay [1] (Compound Concentration 25 μM), 31%.

Consider `CC(C)(C)c1ccc(COc2ccc(-c3ccc(Cl)cc3)cc2CCC(=O)O)cc1` [Compound 50], for which the “Inhibition Rate of PAI-1 Activity (%)” value is 23% in assay [1] (Compound Concentration 5 μM), 56% in assay [1] (Compound Concentration 10 μM) and 96% in assay [1] (Compound Concentration 25 μM).
